High-throughput results (PubChem BioAssay)
Rango release inh: qHTS Assay for Inhibitors of RanGTP induced Rango (Ran-regulated importin-beta cargo) - Importin beta complex dissociation. AID 540253, 2011. Biochemical FRET Rango-importin beta, RanGTP-induced dissociation. 340,000 compounds, 0.071% hits. Snurportin-1 (Homo sapiens) + GTP-binding nuclear protein Ran (Homo sapiens) + Importin …. Potency, µM (top dose mostly 46.1 µM); calls by dose curve; note: nearly all actives have a fitted effect of over 45% in size
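Rango/importin beta premix (0.1/0.25 uM final), PBS + 1 mM DTT + 0.02% Tween-20 + 0.1% BSA; cpd 5 min RT; FRET pre-read; + RanGTP-RCC1 (0.6 uM Ran, 2 mM GTP, 0.2 uM RCC1); 45 min RT; FRET post-read, ex 430, em 486/530 nm.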
PKM2 activator: qHTS Assay for Activators of Human Muscle isoform 2 Pyruvate Kinase | purified PKM2, Kinase-Glo ATP luminescence, activation; response scale: 0% is enzyme alone, no compound | Potency, µM (titrated, usually from 57.5 µM), usual class: activators | 260,000 compounds, 0.34% hits; note: nearly all actives have a fitted effect of over 55% in size
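hPK-M2, >95% pure; 0.1 mM ADP / 0.5 mM PEP final; imidazole pH7.2 buffer w/ 7 mM MgCl2, 50 mM KCl; 1 h RT; Kinase-Glo lum. Intermediate enzyme activity for dual inhibitor/activator qHTS.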
Rango complex inh: qHTS Assay for Inhibitors of Rango (Ran-regulated importin-beta cargo) - Importin beta complex formation; Importin subunit beta-1 (Homo sapiens), Q14974; Rango CFP/YFP FRET sensor + importin beta, 45 min; Potency, µM (doses to about 92.2 µM); 340,000 compounds, 0.031% hits; AID 540263, 2011; calls by dose curve; note: nearly all actives have a fitted effect of over 15% in size
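FRET biosensor (snurportin 1 IBB flanked by EYFP and cerulean), 50 nM, with compound 5 min, then 0.125 microM importin beta in PBS, 1 mM DTT, 0.02% Tween-20, 0.1% BSA. CFP/YFP ratio read after 45 min at room temperature; pre-read flags interference.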
AT treatment: qHTS Assay for Identifying a Potential Treatment of Ataxia-Telangiectasia; AID 485349, 2010; 320,000 compounds, 0.19% hits; F2112 A-T fibroblasts, KAP-1 phosphorylation AlphaLISA; neocarzinostatin DNA damage 30 min before lysis; Potency, µM (doses to about 57.5 µM), actives largely listed as activators; note: nearly all actives have a fitted effect of over 45% in size
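ATM-like activity read as KAP-1 phosphorylation via AlphaLISA donor/acceptor antibody pairs after lysis and 6 hr at 25C. Cells were ATM-null patient fibroblasts (F2112, hTERT), dosed 60 min, then exposed to the DSB inducer NCS for 30 min.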
IL-2 act: qHTS of IL-2 Activators; IL-2 activation reporter assay, cell-based qHTS; stimulated with anti-CD3/CD4/CD28 beads; in transgenic mouse T cells; activation, % (series mostly up to about 46 µM); 360,000 compounds, 0.065% hits; in the data active = activation above about 50%; inconclusive = mostly about 30% to 49%
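Using fluorescent plate cytometry, EGFP and DsRed are detected in transgenic mouse T cells stimulated 18 h at 37 degrees C with antibody-coated beads after 60 min compound pretreatment.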
Large screens that a line does not name were inactive. The list is not random: actives were taken first. Their share in the collection is about 0.59%. Unless noted, calls come from the whole dose curve; as a rule, active = well fitted activation curve with a large enough effect; inconclusive = small, poorly fitted or top-dose-only effect; inactive = no such curve, though single readings can be large or run the other way.

Chains of the proteins cited; added tags and fusions are not shown.
Importin subunit beta-1 (Homo sapiens), Q14974, UniProt Q14974, whole entry, looked up: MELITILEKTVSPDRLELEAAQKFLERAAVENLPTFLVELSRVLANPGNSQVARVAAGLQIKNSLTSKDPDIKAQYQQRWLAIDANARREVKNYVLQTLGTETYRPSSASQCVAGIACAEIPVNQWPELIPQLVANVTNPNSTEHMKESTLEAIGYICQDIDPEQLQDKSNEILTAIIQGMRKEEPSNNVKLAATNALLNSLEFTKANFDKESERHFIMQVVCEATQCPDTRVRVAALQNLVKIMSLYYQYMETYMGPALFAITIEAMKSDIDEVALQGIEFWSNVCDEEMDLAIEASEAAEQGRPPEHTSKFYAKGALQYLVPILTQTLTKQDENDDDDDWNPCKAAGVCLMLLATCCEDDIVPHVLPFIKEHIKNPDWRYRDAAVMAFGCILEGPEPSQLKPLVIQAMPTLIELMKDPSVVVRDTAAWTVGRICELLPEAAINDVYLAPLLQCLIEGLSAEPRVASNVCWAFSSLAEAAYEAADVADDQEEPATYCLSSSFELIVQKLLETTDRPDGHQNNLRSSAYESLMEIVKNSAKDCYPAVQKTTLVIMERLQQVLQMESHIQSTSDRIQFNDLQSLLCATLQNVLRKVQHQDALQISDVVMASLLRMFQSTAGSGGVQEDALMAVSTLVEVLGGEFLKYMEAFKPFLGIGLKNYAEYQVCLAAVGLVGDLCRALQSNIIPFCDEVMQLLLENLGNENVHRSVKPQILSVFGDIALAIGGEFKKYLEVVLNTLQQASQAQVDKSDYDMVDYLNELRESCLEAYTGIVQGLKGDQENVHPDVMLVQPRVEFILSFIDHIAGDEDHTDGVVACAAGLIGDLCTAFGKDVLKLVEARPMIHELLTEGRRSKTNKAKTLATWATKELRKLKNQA

O=C(Nc1ncc2c(n1)CC(c1cccc(Cl)c1)CC2=O)c1ccco1 (stereo unspecified)	AT treatment 13µM
O=C(Nc1ncc2c(n1)CC(c1ccccc1)CC2=O)c1ccco1 (stereo unspecified)	none
O=C(NCCN1CCC(n2c(=O)[nH]c3ccccc32)CC1)c1c(F)cccc1F	none (no result: Rango release inh, PKM2 activator, Rango complex inh, AT treatment)
CCOC(=O)Cn1c(=O)c(-c2ccccc2N)nc2ccccc21	none
CCOC(=O)Cn1c(=O)c(-c2cc(Br)ccc2N)nc2ccccc21	IL-2 act 152
CCn1c(=O)n(CC)c2cc(S(=O)(=O)Nc3ccccc3C)c(C)cc21	PKM2 activator inconclusive
CCc1ccccc1NS(=O)(=O)c1cc2c(cc1C)n(C)c(=O)c(=O)n2C	PKM2 activator 4µM, AT treatment inconclusive
CCOC(=O)[C@]12CCC=C1N(Cc1cccc3ccccc13)C(=O)[C@H](CC(=O)NCc1ccc(C)o1)C2	none (no result: Rango release inh, PKM2 activator, Rango complex inh, AT treatment)
COc1ccc2nc(C)cc(NCc3ccc(F)cc3)c2c1	Rango release inh inconclusive, Rango complex inh inconclusive, IL-2 act 65
COc1ccc2nc(C)cc(Nc3ccc(C)cc3)c2c1	PKM2 activator inconclusive
Cc1cc(=O)oc2cc(OCC(=O)Nc3nnc(C(C)C)s3)ccc12	Rango complex inh inconclusive, IL-2 act 60
O=C(Cn1cnc2cc([N+](=O)[O-])ccc2c1=O)Nc1cccc(S(=O)(=O)N2CCCCC2)c1	none (no result: PKM2 activator, AT treatment)
Cc1ccc(NS(=O)(=O)c2ccc3c(c2)oc(=O)n3C)cc1F	PKM2 activator 4.5µM
CSc1cccc(NS(=O)(=O)c2ccc3c(c2)oc(=O)n3C)c1	PKM2 activator 7.9µM
Cn1c(=O)c2cc(S(=O)(=O)Nc3cccc(F)c3)ccc2n(C)c1=O	PKM2 activator 5µM (no result: AT treatment)
Cn1c(=O)oc2cc(S(=O)(=O)Nc3cccc(F)c3)ccc21	PKM2 activator 13µM
Cn1c(=O)c2cc(S(=O)(=O)NC(C(=O)Nc3cccc(F)c3)c3ccccc3)ccc2n(C)c1=O (stereo unspecified)	none
Nc1sccc1C(=O)NCc1ccccc1	none (no result: Rango release inh, PKM2 activator, Rango complex inh, AT treatment)
COc1cc(CN2CCC(n3nccc3NC(=O)c3ccc4c(c3)OCO4)CC2)ccc1O	none
CS(=O)(=O)Nc1cccc(-c2ccc3nncn3c2)c1	none (no result: Rango release inh, PKM2 activator, Rango complex inh, AT treatment)
Cn1c(=O)oc2cc(S(=O)(=O)Nc3ccccc3O)ccc21	PKM2 activator 14µM
COC(=O)c1ccccc1NS(=O)(=O)c1ccc2c(c1)oc(=O)n2C	none
Cc1ccc(CC#N)c(-c2c(CC#N)ccc(C)c2C)c1C	none (no result: Rango release inh, PKM2 activator, Rango complex inh, AT treatment)
Cc1ccc2c(c1C)-c1c(ccc(C)c1C)C(=O)C2=O	Rango complex inh 29µM (no result: PKM2 activator, AT treatment)
CC(=O)Nc1cccc(-c2ccnc3c2CC(C)(C(=O)NCc2ccncc2)O3)c1 (stereo unspecified)	none (no result: Rango release inh, PKM2 activator, Rango complex inh, AT treatment)
N#C/C(=C/c1ccc(N2CCOCC2)o1)c1ccc(Br)cc1	Rango release inh inconclusive, PKM2 activator 14µM, Rango complex inh inconclusive, AT treatment inconclusive
O=C(CN1CCOCC1)Nc1ncc(Cc2ccccc2Cl)s1	none
CCc1ccc(CCC(=O)Nc2ncc(Cc3ccccc3Cl)s2)o1	PKM2 activator 14µM
CN(CC(=O)Nc1ccc(F)c(F)c1F)C(=O)CC1CCCCC1	Rango complex inh inconclusive (no result: PKM2 activator)
N#C/C(=C/c1ccc(-c2ccc(S(N)(=O)=O)cc2)o1)c1nc2ccccc2s1	Rango release inh inconclusive, Rango complex inh inconclusive, IL-2 act 71
CCC(C(=O)NC1CCCC1)N(C(=O)Cn1nnc(-c2ccc(C)o2)n1)c1cccc(OC)c1 (stereo unspecified)	none
COCC(C)NC(=O)C1CC(=O)N(CCc2ccc(F)cc2)C1 (stereo unspecified)	none (no result: Rango release inh, PKM2 activator, Rango complex inh, AT treatment)
O=C(CCC1CCCC1)NNC(=O)c1cc2ccccc2cc1O	Rango release inh 18µM, Rango complex inh inconclusive (no result: PKM2 activator)
O=C(CC1CCCC1)NNC(=O)c1ccccc1O	none (no result: Rango release inh, PKM2 activator, Rango complex inh, AT treatment)
Clc1ccc(NNc2ccnc3cc(Cl)ccc23)cc1	Rango release inh inconclusive, Rango complex inh inconclusive
Oc1ccc(Nc2ccnc3cc(Cl)ccc23)cc1	AT treatment 40µM
